Counter-ions that a name gives are not always drawn.

Protein sequences, listed by entry. Tags and fused reporters are not part of them.
UniProt P25103, whole entry: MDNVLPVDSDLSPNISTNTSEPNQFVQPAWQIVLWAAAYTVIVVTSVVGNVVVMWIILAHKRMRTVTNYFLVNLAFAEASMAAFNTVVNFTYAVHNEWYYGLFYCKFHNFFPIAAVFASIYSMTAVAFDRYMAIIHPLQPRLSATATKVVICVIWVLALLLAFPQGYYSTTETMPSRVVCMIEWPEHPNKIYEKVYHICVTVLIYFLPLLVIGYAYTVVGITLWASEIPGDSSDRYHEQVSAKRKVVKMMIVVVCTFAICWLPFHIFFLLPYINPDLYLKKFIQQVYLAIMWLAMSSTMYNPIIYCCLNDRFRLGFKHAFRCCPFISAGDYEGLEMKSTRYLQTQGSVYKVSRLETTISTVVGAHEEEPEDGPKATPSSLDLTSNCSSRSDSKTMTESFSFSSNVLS

The test addresses human neurokinin-1-receptor (NK1R) (Homo sapiens, UniProt P25103). Nature of the test: biochemical. The settings on record: 125I-SP binding; cloned human NK1R expressed in COS or CHO; 1 hour at 4° C. or room temperature.
For the molecule `CC(=O)NC(Cc1c[nH]c2ccccc12)C(=O)C=Cc1cc(C(F)(F)F)cc(C(F)(F)F)c1` (stereo not shown) [Example 7, 2-Acetamido-5-(3,5-bistrifluoromethylphenyl)-1-(3-indolyl)-4-penten-3-one], the IC50 (in general, the concentration needed to halve the response being measured) is 200 nM. This counts as sub-micromolar.

On to `CN(C)CC(=O)NC(Cc1c[nH]c2ccccc12)C(=O)CCc1cc(C(F)(F)F)cc(C(F)(F)F)c1` (stereo not shown) [Example 12, 5-(3,5-Bistrifluoromethylphenyl)-2-(N,N-dimethylglycinamido)-1-(3-indolyl)-3-pentanone Hydrochloride], for which the 50% inhibitory concentration (IC50) came out at 10 nM.

For the molecule `CN(C)CCC(=O)NC(Cc1c[nH]c2ccccc12)C(=O)CCc1cc(C(F)(F)F)cc(C(F)(F)F)c1` (stereo not shown) [Example 16, 5-(3,5-Bistrifluoromethylphenyl)-2-(3-N,N-dimethylaminopropionamide)-1-(3-indolyl)-3-pentanone Hydrochloride], the IC50 turned out to be 2 nM.

For the molecule `CC(=O)NC(Cc1c[nH]c2ccccc12)C(=O)CCc1cc(C(F)(F)F)cc(C(F)(F)F)c1` (stereo not shown) [Example 8, 2-Acetamido-5-(3,5-bistrifluoromethylphenyl)-1-(3-indolyl)-3-pentanone], the half-maximal inhibitory concentration (IC50) was 3 nM.

The values are drawn from patent publication US5328927A, “Hetercyclic compounds, processes for their preparation and pharmaceutical compositions containing them” (Merck Sharpe & Dohme, Ltd., priority 1992, dated 1994).
